Holding throughout (assay type): functional
Common to all, as to conditions: 0.5 h

Experiment [1] in a line: Upregulation of ANLN expression in human HeLa cells assessed as fold increase at 100 uM incubated for 30 mins by phosphoproteomic analysis.
Experiment [2] can be described thus: Upregulation of CAP2 expression in human HeLa cells assessed as fold increase at 100 uM incubated for 30 mins by phosphoproteomic analysis.
Experiment [3] is described as follows: Upregulation of HNRNPC expression in human HeLa cells assessed as fold increase at 100 uM incubated for 30 mins by phosphoproteomic analysis.
A short description of experiment [4]: Upregulation of INF2 expression in human HeLa cells assessed as fold increase at 100 uM incubated for 30 mins by phosphoproteomic analysis.
The nature of experiment [5]: Upregulation of CTTNBP2NL expression in human HeLa cells assessed as fold increase at 100 uM incubated for 30 mins by phosphoproteomic analysis.
The nature of experiment [6]: Upregulation of ARHGAP17 expression in human HeLa cells assessed as fold increase at 100 uM incubated for 30 mins by phosphoproteomic analysis.
For experiment [7], the system named is HeLa. The experiment is described as follows: Downregulation of HNRNPU expression in human HeLa cells assessed as fold increase at 100 uM incubated for 30 mins by phosphoproteomic analysis.
The nature of experiment [8]: Upregulation of PCM1 expression in human HeLa cells assessed as fold increase at 100 uM incubated for 30 mins by phosphoproteomic analysis.
A short description of experiment [9]: Upregulation of NEFH expression in human HeLa cells assessed as fold increase at 100 uM incubated for 30 mins by phosphoproteomic analysis.

On to `CC(C)C(=O)Nc1ncc(-c2cc(C(F)F)nn2-c2c(Cl)cccc2Cl)s1`, for which the “fold change (FC)” value is listed as 1.02 in experiment [1]; 1 in experiment [2]; 1.09 in experiment [3]; 1.03 in [4]; 1.01 in experiment [5]; 1.01 in experiment [6]. Also, the figures for the “fold change (FC)” value in experiment [7], in experiment [8] and in [9] were -1.03, 1.03 and 1.01, respectively.

Source of the values: ChEMBL document CHEMBL5108049, “Development and Characterization of Type I, Type II, and Type III LIM-Kinase Chemical Probes” (J Med Chem, 2022).
